In publication PMC3440873 (Bioorganic & medicinal chemistry letters, 2011):

System: MDA-MB-231 breast adenocarcinoma cells

CN[C@@H](C)C(=O)N[C@H](C(=O)N1CCC[C@H]1C(=O)Nc1cccc2ccccc12)C(C)C [Compound 9h]
TRAIL sensitizing activity: strong TRAIL sensitizing activity
